Experimental data published in publication PMC5361215 (Scientific Reports, 2017).

The chains behind the UniProt entries cited, without tags or fusion partners. Residues count along the entry.
UniProt P06828, 19-539 K108G: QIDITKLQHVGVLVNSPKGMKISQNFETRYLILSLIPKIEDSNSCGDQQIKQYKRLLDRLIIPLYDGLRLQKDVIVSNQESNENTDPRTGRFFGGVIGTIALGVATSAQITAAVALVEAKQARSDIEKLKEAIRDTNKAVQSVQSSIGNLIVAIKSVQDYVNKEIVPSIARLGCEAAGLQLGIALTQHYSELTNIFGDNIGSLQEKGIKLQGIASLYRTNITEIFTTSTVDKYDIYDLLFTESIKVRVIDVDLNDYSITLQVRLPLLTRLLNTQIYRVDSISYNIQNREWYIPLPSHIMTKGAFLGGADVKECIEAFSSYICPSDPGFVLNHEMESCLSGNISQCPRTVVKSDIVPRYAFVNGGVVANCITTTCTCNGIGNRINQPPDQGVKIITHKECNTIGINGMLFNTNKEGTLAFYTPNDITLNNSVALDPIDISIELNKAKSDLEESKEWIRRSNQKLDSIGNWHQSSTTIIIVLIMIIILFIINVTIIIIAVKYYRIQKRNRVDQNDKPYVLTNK

How the values were obtained:
[1] = test system: HPIV3; conditions: 24 h
[2] = test system: Vero cells; conditions: 24 h
[3] = biological target: uncleaved HPIV3 F (K108G) (Human parainfluenza 3 virus, UniProt P06828, K108G); type: cell-based
[4] = type: physicochemical; conditions: pH 7.4

With `CC[C@H](C)[C@H](NC(=O)[C@H](CO)NC(=O)[C@H](CC(=O)O)NC(=O)[C@H](CC(C)C)NC(=O)[C@H](CCCCN)NC(=O)CNC(=O)[C@H](CC(N)=O)NC(=O)[C@H](CO)NC(=O)[C@H](CCCNC(=N)N)NC(=O)[C@H](CCCNC(=N)N)NC(=O)[C@@H](NC(=O)[C@H](Cc1c[nH]c2ccccc12)NC(=O)[C@H](CCC(=O)O)NC(=O)[C@H](CCCCN)NC(=O)[C@H](CO)NC(=O)[C@H](CCC(=O)O)NC(=O)[C@H](CCC(=O)O)NC(=O)[C@H](CC(C)C)NC(=O)[C@H](CC(=O)O)NC(=O)[C@H](CO)NC(=O)[C@H](CCCCN)NC(=O)[C@H](C)NC(=O)[C@H](CCCCN)NC(=O)[C@H](CC(N)=O)NC(=O)[C@H](CC(C)C)NC(=O)[C@@H](NC(=O)[C@@H](NC(=O)[C@H](CO)NC(=O)[C@@H](NC(=O)[C@H](CC(=O)O)NC(=O)[C@@H](NC(=O)[C@@H]1CCCN1C(=O)[C@H](CC(=O)O)NC(=O)[C@H](CC(C)C)NC(=O)[C@H](C)NC(=O)[C@@H](NC(C)=O)C(C)C)[C@@H](C)CC)[C@@H](C)CC)[C@@H](C)CC)C(C)C)[C@@H](C)CC)C(=O)NCC(=O)N[C@@H](CO)C(=O)NCC(=O)N[C@@H](CO)C(=O)NCC(=O)N[C@@H](CS)C(N)=O` [VG] the IC50 [1] was 1 nM, the IC90 [1] was 280 ± 247 nM and the “Cytotoxicity in monolayer culture CC50” value [2] was >10,000 nM. For the same molecule, the “RBCs free (released)” value [3] was 80%, the “RBCs reversibly bound (HN-receptor engagement only)” value [3] was 20% and the “Aggregate formation (ANS fluorescence)” value [4] was “unable to form aggregates”.
